In patent US20040097408A1, “Compounds regulating cell proliferation and differentiation” (priority 2001, published 2004):

System: mice
Test: tolerability of intraperitoneal F16 in mice
Settings: doses of 12.5 and 25 mg/kg

## C[n+]1ccc(/C=C/c2c[nH]c3ccccc23)cc1.[I-] [F16]
  tolerability: well tolerated
